Measurements reported in publication PMC4162805 (European journal of medicinal chemistry, 2014).

Sequences of proteins named here, by UniProt entry; tags and fusion partners are left off. A change or cut given only in a name is not applied to a line headed by its entry.
UniProt P41145: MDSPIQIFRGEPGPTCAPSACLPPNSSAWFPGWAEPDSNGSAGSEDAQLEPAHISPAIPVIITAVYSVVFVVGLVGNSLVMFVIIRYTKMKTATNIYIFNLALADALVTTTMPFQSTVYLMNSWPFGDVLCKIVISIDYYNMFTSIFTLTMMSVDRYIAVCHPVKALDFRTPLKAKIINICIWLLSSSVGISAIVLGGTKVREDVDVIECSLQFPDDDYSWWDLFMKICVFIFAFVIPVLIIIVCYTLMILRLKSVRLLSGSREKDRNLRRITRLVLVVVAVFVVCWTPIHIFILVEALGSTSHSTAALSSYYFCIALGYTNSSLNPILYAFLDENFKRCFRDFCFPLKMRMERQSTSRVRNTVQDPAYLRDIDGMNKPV

Molecular target: κ-opioid receptor (KOR) (Homo sapiens, UniProt P41145)
Type: binding
Settings: vs 4a

C=CCC(=O)O[C@H]1C[C@@H](C(=O)OC)[C@]2(C)CC[C@H]3C(=O)O[C@H](c4ccoc4)C[C@]3(C)[C@H]2C1=O [4f, 2-O-(3′-Butenoyl)salvinorin B]
fold increased KOR affinity compared to 4a: 2 fold
